This is an account of results in publication PMC8836147, “Design, Synthesis and Antifungal/Nematicidal Activity of Novel 1,2,4-Oxadiazole Derivatives Containing Amide Fragments” (International Journal of Molecular Sciences, 2022).

The chains behind the UniProt entries cited, without tags or fusion partners. Residues count along the entry.
UniProt A7E8N3, 45-189: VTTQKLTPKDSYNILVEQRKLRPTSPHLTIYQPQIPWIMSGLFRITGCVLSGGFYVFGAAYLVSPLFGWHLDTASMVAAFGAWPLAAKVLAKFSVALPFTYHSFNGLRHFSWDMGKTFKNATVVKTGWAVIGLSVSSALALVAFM
UniProt A7EGE3, 30-301: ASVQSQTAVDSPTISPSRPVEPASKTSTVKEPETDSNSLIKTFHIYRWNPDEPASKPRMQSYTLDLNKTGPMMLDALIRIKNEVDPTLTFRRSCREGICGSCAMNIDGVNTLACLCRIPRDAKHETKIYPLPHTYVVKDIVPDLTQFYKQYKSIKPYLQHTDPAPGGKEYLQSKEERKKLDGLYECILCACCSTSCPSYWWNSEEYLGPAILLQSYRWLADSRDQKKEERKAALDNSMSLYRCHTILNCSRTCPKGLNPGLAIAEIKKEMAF
UniProt A7ELH6, 55-192: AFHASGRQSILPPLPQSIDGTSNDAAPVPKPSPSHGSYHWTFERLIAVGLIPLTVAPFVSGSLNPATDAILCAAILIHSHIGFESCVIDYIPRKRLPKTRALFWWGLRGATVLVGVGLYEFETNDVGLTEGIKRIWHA

This experiment addresses S. sclerotiorum SDH (Sclerotinia sclerotiorum, UniProt A7E8N3+A7EGE3+A7ELH6). Kind of experiment: SDH enzyme activity bioassay (succinate dehydrogenase assay kit). The class given is biochemical. The procedure:
The succinate dehydrogenase assay kit (Comin, Jiangsu, China) was used to determine the enzyme activity of F15, which was assessed as reported previously. S. sclerotiorum was grown in potato dextrose (PD) medium containing F15 with different concentrations to test the IC50 value of SDH. Fluopyram was used as a positive control. All operations were strictly in accordance with the operating instructions of the SDH assay kit. The absorbance of each treatment on fungal SDH was measured at 600 nm to determine the inhibitory effects of each treatment on fungal SDH.

As for `O=C(NCCc1ncc(C(F)(F)F)cc1Cl)c1ccccc1C(F)(F)F` [Fluopyram, fluopyram, reference compound], it took 19.9 µM to reach half-maximal inhibition (IC50).
